Molecules are shown by their SMILES. This is a selection; strong and weak results do not stand in their true shares. Inconclusive results are not listed. Active and inactive are the calls of the source. Calls come from the whole dose curve; as a rule, active = well fitted inhibition curve with a large enough effect; inconclusive = small, poorly fitted or top-dose-only effect; inactive = no such curve, though single readings can be large or run the other way.

Amino acid sequences for entries named in this document (tags omitted). A change or cut given only in a name is not applied to a line headed by its entry.
UniProt Q9UGL1: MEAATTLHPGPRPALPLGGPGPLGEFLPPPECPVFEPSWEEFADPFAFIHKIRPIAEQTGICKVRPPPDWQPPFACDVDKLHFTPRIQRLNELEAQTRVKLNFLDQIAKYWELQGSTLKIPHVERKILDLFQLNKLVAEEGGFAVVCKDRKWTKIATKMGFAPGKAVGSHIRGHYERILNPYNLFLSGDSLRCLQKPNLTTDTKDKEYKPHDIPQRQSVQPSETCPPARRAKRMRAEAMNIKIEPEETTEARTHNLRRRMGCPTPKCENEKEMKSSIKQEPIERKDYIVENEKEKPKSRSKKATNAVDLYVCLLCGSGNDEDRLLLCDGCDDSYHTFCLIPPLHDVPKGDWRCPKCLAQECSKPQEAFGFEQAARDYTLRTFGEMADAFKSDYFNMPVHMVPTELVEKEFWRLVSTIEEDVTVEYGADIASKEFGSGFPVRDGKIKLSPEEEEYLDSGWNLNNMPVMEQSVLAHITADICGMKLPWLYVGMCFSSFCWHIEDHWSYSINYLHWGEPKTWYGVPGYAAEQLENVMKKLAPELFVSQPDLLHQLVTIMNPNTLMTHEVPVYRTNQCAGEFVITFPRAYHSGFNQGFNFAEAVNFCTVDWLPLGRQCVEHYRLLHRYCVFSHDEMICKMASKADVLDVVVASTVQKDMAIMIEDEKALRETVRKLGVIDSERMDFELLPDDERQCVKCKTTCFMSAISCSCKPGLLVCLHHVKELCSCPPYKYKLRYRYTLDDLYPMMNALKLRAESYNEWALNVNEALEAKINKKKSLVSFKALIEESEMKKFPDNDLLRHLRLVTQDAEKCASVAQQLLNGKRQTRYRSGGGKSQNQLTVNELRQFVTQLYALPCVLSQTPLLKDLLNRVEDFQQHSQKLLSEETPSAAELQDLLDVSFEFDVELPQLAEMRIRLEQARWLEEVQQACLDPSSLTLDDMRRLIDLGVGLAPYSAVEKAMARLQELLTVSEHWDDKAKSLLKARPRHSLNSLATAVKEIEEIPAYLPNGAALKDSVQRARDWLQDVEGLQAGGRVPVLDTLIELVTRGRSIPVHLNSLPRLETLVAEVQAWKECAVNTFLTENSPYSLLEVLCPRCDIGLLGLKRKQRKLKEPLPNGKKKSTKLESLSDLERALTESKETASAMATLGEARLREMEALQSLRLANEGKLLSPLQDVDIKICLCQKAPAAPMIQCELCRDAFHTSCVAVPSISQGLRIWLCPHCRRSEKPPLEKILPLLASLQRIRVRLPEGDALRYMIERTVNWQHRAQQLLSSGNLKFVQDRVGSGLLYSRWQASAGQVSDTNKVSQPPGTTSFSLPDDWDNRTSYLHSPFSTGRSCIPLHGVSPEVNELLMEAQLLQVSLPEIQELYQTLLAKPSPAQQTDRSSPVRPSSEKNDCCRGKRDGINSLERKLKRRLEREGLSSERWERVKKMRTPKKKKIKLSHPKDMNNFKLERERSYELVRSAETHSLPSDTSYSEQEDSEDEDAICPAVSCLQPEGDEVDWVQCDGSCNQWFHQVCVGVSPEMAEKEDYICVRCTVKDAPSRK

This note sets out measurements from PubChem BioAssay AID1347165 (National Center for Advancing Translational Sciences (NCATS), 2019).

In this assay the target is Lysine-specific demethylase 5B (Homo sapiens) (UniProt Q9UGL1). Nature of the assay: Primary screen for KDM5B Histone Demethylases FDH-coupled qHTS. Note: 0% is about no effect; nearly all actives have a fitted effect of over 70% in size. As to conditions: FDH-coupled NADH fluorescence (FDH is formaldehyde dehydrogenase); at 57.7 µM (top of the series). The source says: Assay Submitter (PI): Qin Yan, Ph.D. (Yale University) and Xiaodong Cheng, Ph.D. (MD Anderson) This project was funded as part of the NCI NEXT Program and Chemical Biology Consortium (CBC) The histone demethylases, KDM5A and KDM5B catalyze the demethylation of lysine 4 on histone H3 (H3K4me3/2). They are overexpressed in a variety of cancers and have been implicated in cancer cell growth, metastasis, drug resistance, and tumor growth. KDM5A is amplified and overexpressed in breast and gastric cancer; and is translocated in leukemia. While KDM5B is highly expressed in human mammary tumors and breast cancer cell lines, but not in normal adult breast tissue. Moreover, knockdown of KDM5B leads to upregulation of tumor suppressor genes, including BRCA1. The goal of this project is to employ qHTS to identify selective small molecule inhibitors of KDM5A/B demethylase activity to better understand the role of KDM5 in cancer and to develop novel therapies. We employed an FDH-coupled assay previously reported by Sakurai et al. to monitor in vitro KDM5 demethylase activity. Compounds showing dose response inhibition are re-acquired, validated, and tested for non-specific interference with the formaldehyde dehydrogenase (FDH) counterscreen. True inhibitors are validated using an AlphaLisa secondary screen, which employs an H3K4(me2-1)-specific antibody to monitor demethylation of a biotin-tagged H3K4(me3) peptide substrate. Inhibitors are profiled against KDM4A and KDM6A AlphaLisa counterscreens to determine level of demethylase specificity; and against the TruHits counterscreen to eliminate non-specific inhibitory activity on the AlphaLISA detection method. Selective inhibitors identified from the primary and secondary screening are tested in cells using immunofluorescence to monitor global H3K4 tri-methylation as a measure of KDM5A/B inhibition. Early Translation Branch (ETB) National Center for Advancing Translational Sciences (NCATS), Rockville, MD National Institute of Health (NIH), Bethesda, Maryland [1] Sakurai, M et al. A miniaturized screen for inhibitors of Jumonji histone demethylases. Mol Biosyst. 2010 Feb;6(2):357-64. doi: 10.1039/b912993f. Epub 2009 Oct 8.
Materials: 1536-well Black, solid bottom, medium binding assay plate is purchased from Greiner Bio-one. The enzymes (KDM5B) and substrate (H3K4me3/2) are provided by the principal investigators. The buffer for this assay is composed of 50mM HEPES at pH 7.5 with 0.01% Tween-20. FDH coupled Demethylase qHTS protocol: Three microliter enzyme mix (buffer + 200nM KDM5BDeltaAP final concentration) is dispensed into the assay plate using the BioRAPTR Flying Reagent Dispenser (FRD; […]). Compound (at various final concentration) and control solution is pin transferred to the assay plate using the Kalypsys 1536-pin tool apparatus. The assay plate is incubated for 10 min at room temperature followed by addition of 1uL substrate mix (buffer + 100uM ascorbic acid, 50uM ferrous ammonium sulfate, 12.5uM H3K4Me3, 25uM a-ketoglutarate, 0.25 mM NAD+, 0.25 U/mL formaldehyde dehydrogenase using the FRD yielding a total reaction volume of 4 uL. Initial fluorescence (Read1) is detected using the PerkinElmer ViewLux plate reader equipped with 340 nm excitation and 450 nm emission filters. The final fluorescence (Read2) signal is obtained after 30 min of room temperature incubation. Delta RFU is calculated (Read2 - Read1) and is used to generated dose response curves.
On the technique in general: Quantitative high-throughput screening tests each substance at several concentrations.
For `Nc1ccc([As](=O)(O)c2ccc(N)cc2)cc1`, the activity change, negative = inhibition was inactive: -12.8%.

Turning to `CC(C)(C)C(=O)NC(Sc1ccncn1)C(Cl)(Cl)Cl` (stereo not given), the activity change, negative = inhibition was inactive: -12.9%.

For the compound `BrCCNCCc1ccncc1`, the activity change, negative = inhibition was inactive: -11.9%.

With `CCn1nc(C(=O)NCC2(N3CCCCC3)CCCCC2)c2ccccc2c1=O`, the activity change, negative = inhibition is inactive: -3.71%.

As to `CN(C)C(=O)Oc1noc2ccccc12`, the activity change, negative = inhibition is inactive: 32.4%.

`Nc1ccc([As](=O)(O)c2ccc([N+](=O)[O-])cc2)cc1`: the activity change, negative = inhibition was inactive: 14.9%.

On to `CN(C)C1(CNC(=O)c2ccc(Cl)c(S(N)(=O)=O)c2)CCCCC1`, for which the activity change, negative = inhibition is inactive: 24.9%.

Consider `O=P(Nc1nc2ccccc2s1)(c1ccccc1)c1ccccc1`, for which the activity change, negative = inhibition was inactive: 13.9%.

In the case of `ClCCNC1C2CC3CC(C2)CC1C3` (stereo not given), the activity change, negative = inhibition was inactive: -24.6%.

In the case of `CCOP(=O)(NC(=NC(C)c1ccccc1)NC(C)c1ccccc1)OCC` (stereo not given), the activity change, negative = inhibition was inactive: 31.4%.

For `Nc1cccc([As](=O)(O)c2ccccc2)c1`, the activity change, negative = inhibition is inactive: 16.8%.

For the compound `Cc1ccc(C(=O)NC(Sc2ccccc2)C(Cl)(Cl)Cl)cc1` (stereo not given), the activity change, negative = inhibition was inactive: -3.7%.

Take `Cc1ccc(C(=O)NC(Sc2ccc(Cl)cc2)C(Cl)(Cl)Cl)cc1` (stereo not given): the activity change, negative = inhibition was inactive: -20.1%.

For `CCCOP(=S)(Nc1nc(N)cc(=O)[nH]1)OCCC`, the activity change, negative = inhibition is inactive: 18.8%.

Regarding `NNc1ccc([N+](=O)[O-])cc1[N+](=O)[O-]`, the activity change, negative = inhibition was inactive: -16%.

Take `CS(=O)(=O)c1ccc(Cl)c(NC(=O)COC(=O)C(O)(c2ccccc2)c2ccccc2)c1`: the activity change, negative = inhibition was inactive: 7.31%.

With `Fc1ccc(NC2=NCC(CI)S2)c(F)c1` (stereo not given), the activity change, negative = inhibition was inactive: -6.4%.

As to `BrCC1CN=C(Nc2ccccc2)S1` (stereo not given), the activity change, negative = inhibition is inactive: 9.96%.

As for `O=C(NC(Sc1ccc(Cl)cc1)C(Cl)(Cl)Cl)c1ccccc1` (stereo not given), the activity change, negative = inhibition was inactive: -16.2%.

As for `Fc1ccc(CNC2=NCC(CBr)S2)cc1` (stereo not given), the activity change, negative = inhibition is inactive: 10.6%.

With `O=C(NC(Sc1ccccc1)C(Cl)(Cl)Cl)c1ccc(Cl)cc1` (stereo not given), the activity change, negative = inhibition was inactive: 11%.

Take `O=C(/C=C/c1ccccc1)NC(Sc1ccc(Cl)cc1)C(Cl)(Cl)Cl` (stereo not given): the activity change, negative = inhibition was inactive: -14.5%.

Regarding `Clc1cccc(NC2=NCC(CBr)S2)c1` (stereo not given), the activity change, negative = inhibition was inactive: -0.61%.

As for `O=C(Nc1ccncc1[N+](=O)[O-])c1ccc([N+](=O)[O-])cc1[N+](=O)[O-]`, the activity change, negative = inhibition was inactive: 19.6%.

In the case of `Cc1cccc(C(=O)NC(Sc2ccccc2)C(Cl)(Cl)Cl)c1` (stereo not given), the activity change, negative = inhibition is inactive: 24.4%.
